In the assay the target is recombinant PKR1 (Homo sapiens (Human), UniProt Q8TCW9). The assay can be described thus: Aequorin-based Ca2+ mobilization antagonist assay, CHO cells expressing PKR1. It is filed as cell-based.

Sequences of proteins named here, by UniProt entry; tags and fusion partners are left off. A change or cut given only in a name is not applied to a line headed by its entry.
UniProt Q8TCW9: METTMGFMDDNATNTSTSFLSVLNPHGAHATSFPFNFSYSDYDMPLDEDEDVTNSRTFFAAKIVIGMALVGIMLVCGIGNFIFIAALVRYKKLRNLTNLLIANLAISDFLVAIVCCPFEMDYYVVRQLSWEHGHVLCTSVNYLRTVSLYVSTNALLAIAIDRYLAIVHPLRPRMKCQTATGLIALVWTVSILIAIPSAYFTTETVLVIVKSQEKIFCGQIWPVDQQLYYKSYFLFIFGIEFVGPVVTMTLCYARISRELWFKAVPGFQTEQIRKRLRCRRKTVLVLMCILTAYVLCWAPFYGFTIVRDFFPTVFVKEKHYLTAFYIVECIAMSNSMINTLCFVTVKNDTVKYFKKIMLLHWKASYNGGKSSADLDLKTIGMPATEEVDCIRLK

Where “and” joins values, the source holds several entries; their conditions need not be identical. Equal values may be shown once.

As to `CC(C)CN(Cc1cc(Cl)c2c(c1)CCCCO2)C(=O)[C@@H]1CCN(Cc2cccc3c2CCN3)C1`, the inhibition constant (Ki) was determined as 1.56 nM.

On to `CC(C)CN(Cc1cc(Cl)c2c(c1)OCCCO2)C(=O)C(C)CNCc1cccc2c1ccn2C` (centres unmarked), for which the Ki was found to be 13.3 nM. For `CC(C)CN(Cc1cc(Cl)c2c(c1)OCCCO2)C(=O)[C@@H](C)CNCc1cccc2cc[nH]c12` the value was 67.4 nM. For `CC(C)CN(Cc1cc(Cl)c2c(c1)OCCCO2)C(=O)[C@H](C)CNCc1cccc2[nH]ccc12` the value was 7.18 nM and 4.08 nM. For `CC(C)CN(Cc1cc(Cl)c2c(c1)OCCCO2)C(=O)[C@H](C)CNCc1cccc2c1OCC2` the value was 3.78 nM.

For `Cc1ccccc1CN1CC[C@@H](C(=O)N(Cc2cc(F)c3c(c2)OCCCO3)CC(C)C)C1`, the Ki was 46.4 nM. For `CC(C)CN(Cc1cc(Cl)c2c(c1)OCCCO2)C(=O)C(C)CNCc1cccc2[nH]ccc12` (racemic) the value was 10.7 nM; for `CC(C)CN(Cc1cc(Cl)c2c(c1)OCCCO2)C(=O)C(C)CNCc1cccc2cc[nH]c12` (racemic), 6.96 nM and 4.9 nM. For `CCCN(Cc1cc(Cl)c2c(c1)OCCCO2)C(=O)C(C)CNCc1cccc2[nH]ccc12` (racemic) the value was 19.7 nM; for `COc1ccccc1CNCC(C)C(=O)N(Cc1cc(Cl)c2c(c1)OCCCO2)CC(C)C` (racemic), 25.2 nM; for `CC(C)CN(Cc1cc(Cl)c2c(c1)OCCCO2)C(=O)[C@@H]1CCN(Cc2ccccc2)C1` [Example 15, (3R)-1-Benzyl-N-(9-chloro-3,4-dihydro-2H-1,5-benzodioxepin-7-ylmethyl)-N-isobutyl pyrrolidine-3-carboxamide], 23.4 nM.
